Results: ChEMBL document CHEMBL1255197, “Surface plasmon resonance biosensor based fragment screening using acetylcholine binding protein identifies ligand efficiency hot spots (LE hot spots) by deconstruction of nicotinic acetylcholine receptor α7 ligands” (J Med Chem, 2010)

Amino acid sequences for entries named in this document (tags omitted).
UniProt P36544, whole entry: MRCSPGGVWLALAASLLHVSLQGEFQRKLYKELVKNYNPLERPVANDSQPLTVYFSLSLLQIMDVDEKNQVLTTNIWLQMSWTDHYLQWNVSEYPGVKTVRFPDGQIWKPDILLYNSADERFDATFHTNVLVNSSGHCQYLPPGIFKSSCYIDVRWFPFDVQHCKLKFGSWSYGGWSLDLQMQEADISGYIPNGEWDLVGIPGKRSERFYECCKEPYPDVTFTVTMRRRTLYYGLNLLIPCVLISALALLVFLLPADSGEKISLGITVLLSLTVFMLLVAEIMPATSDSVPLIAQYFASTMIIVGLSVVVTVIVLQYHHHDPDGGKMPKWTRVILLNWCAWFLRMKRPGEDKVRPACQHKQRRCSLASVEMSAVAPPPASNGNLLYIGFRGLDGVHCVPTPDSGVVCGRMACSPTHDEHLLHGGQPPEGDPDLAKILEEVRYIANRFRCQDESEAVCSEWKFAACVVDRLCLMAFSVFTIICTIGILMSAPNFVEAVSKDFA
UniProt P58154, whole entry: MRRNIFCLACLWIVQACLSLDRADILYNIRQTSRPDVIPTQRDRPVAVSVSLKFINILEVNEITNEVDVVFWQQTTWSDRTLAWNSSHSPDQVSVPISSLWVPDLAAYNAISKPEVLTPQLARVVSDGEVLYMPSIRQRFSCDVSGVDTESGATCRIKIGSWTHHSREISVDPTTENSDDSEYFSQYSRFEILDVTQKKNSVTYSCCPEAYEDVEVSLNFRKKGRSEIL

Assays:
[1] = target: Neuronal acetylcholine receptor subunit alpha-7 (Homo sapiens, UniProt P36544); test: biochemical
[2] = target: Acetylcholine-binding protein (Lymnaea stagnalis, UniProt P58154)

Q: Which Ki [1] does the source give for O=C(Nc1ccccc1)O[C@H]1CN2CCC1CC2 here?
A: Its Ki is 1.95 µM.

Q: CN1CCC[C@H]1c1cccnc1 [NICOTINE] was tested. Which Kd [2] did it give?
A: The Kd was 0.479 µM.
